Results on one substance are retold here after US20220127258A1, “AROMATIC RING OR HETEROAROMATIC RING COMPOUNDS, PREPARATION METHOD THEREFOR AND MEDICAL USE THEREOF” (The National Institutes of Pharmaceutical R&D Co., Ltd., priority 2019, published 2022).

The assay deals with T1, FXR (Homo sapiens, UniProt Q96RI1).
T1 sequence (Q96RI1 262-486 limits assumed): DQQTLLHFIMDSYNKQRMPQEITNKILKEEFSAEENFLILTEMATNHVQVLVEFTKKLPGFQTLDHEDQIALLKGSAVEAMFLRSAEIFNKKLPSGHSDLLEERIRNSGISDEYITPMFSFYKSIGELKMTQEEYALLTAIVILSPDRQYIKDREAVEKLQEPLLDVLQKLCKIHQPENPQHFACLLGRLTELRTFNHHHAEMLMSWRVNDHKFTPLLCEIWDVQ
The assay can be described thus: FXR agonistic activity, luciferase assay. Format: cell-based. The following applies: luc2P-GAL4-HEK293 cells transfected with pBIND-FXR, 24 hours. The method, then: The FXR agonistic activity of the compound of the present invention was evaluated using the luciferase assay.
The experimental process comprises the follows. The luc2P-GAL4-HEK293 stably transfected cell line (the cell line was established by transfecting pGL4.35 plasmid with HEK293 cells which was then subjected to Hygromycin B screening. The cell contained 9×GAL4 UAS and firefly luciferase reporter gene. The ligand-activated LBD-GAL4 DBD fusion protein can enter the nucleus to bind to 9×GAL4 UAS and activate the transcription of the downstream luciferase reporter gene) was transferred to a 96-well plate with […] per well. pBIND-FXR (Which was constructed by inserting FXR-LBD into pFN26A-BIND hRluc-neo Flexi® vector. The plasmid was 7.5 kb in size, Amp resistant, contained FXR-LBD, and can express FXR-LBD and GAL4 DBD fusion proteins) was transfected using X-tremeGENE HP transfection reagent. The ratio of plasmid to transfection reagent was 1 μg: 2 μl. […] All the liquid in the plate was transferred to a 96-well microtiter plate, and the firefly luciferin value was measured with a multi-function plate reader (manufacturer: Bio Tek (USA); model: Synergy4). […] The plate was incubated at room temperature for 10 minutes, and the renilla luciferin value was measured. The measurement order of renilla fluorescence should be the same as that of firefly fluorescence. […]

pEC50: −log10 of the molar value.

Consider “2-chloro-4-(5-((1R,3r,5S)-3-((5-cyclopropyl-3-(2,6-dichlorophenyl)isoxazol-4-yl)methoxy)-8-azabicyclo[3.2.1]octan-8-yl)-1,3,4-oxadiazol-2-yl)benzoic acid [Example 9]”, for which the pEC50 is 7.00 to 7.30.

In general, pEC50 refers to the negative decadic logarithm of the EC50, by convention in mol/L.
